From PubChem BioAssay
Glyco luc inh = N-linked glycosylation inhibition | 0.23% of 360,000 active | reporter increase, % at 12.5 µM | D54 ERlucT glycosylation luciferase reporter, 24 h; percent of 100 nM tunicamycin response | AID 588692;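 active means mean luciferase reporter signal, scaled so untreated is 0 and the glycosylation-blocking control 100, at or above a set limit in every replicate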;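 further: luciferase carries N-glycosylation sites so blocking glycosylation raises the light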
miR122 inh = blocks miR-122 activity in Huh7 sensor cells; AID 602342; activation (reporter increase), % at 12.5 µM; Huh7 miR-122 Renilla luciferase sensor, 48 h; neutral wells = 0, positive control = 100; 0.3% of 340,000 active;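 active means mean replicate activation score at least 90 and every replicate individually at or above 90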;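 further: higher luciferase means less miR-122 activity so hits act as miR-122 inhibitors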
Yeast UUG start = modulators of yeast start codon fidelity, primary screen, whole organism, S. cerevisiae, single point, plate reader | AID 602363, 2012 | actives 0.13% (n = 350,000) | activity score, % at 18.7 µM | S. cerevisiae UUG-firefly luciferase reporter, luminescence/redox ratio;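 active means replicate mean at a twofold rise or more, about +100% in these data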;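 further: firefly luciferase made from a UUG start codon reports start codon fidelity; reporter light over untreated wells divided by growth signal over untreated wells; some hits fall short of that in this replicate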
C2C12 statin = suppression of simvastatin myotoxicity; C2C12 myotubes + simvastatin, ATP luminescence, 48 h; scaled: DMSO 0, geranylgeraniol control 100; rescue of ATP level, % at 7.49 µM; 0.78% of 330,000 active; AID 602340;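 active means mean ATP rescue above about 67%, or every replicate alone reaching that limit, limit read from the data, passing the limit was not always enough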;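 further: myotubes were challenged with 10 µM simvastatin during compound exposure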
Cneo AK release = causes C. neoformans cell lysis. adenylate kinase release luminescence, 4 h; normalised: neutral wells 0, clomiphene wells 100. lysis activity, % at 15 µM. 0.2% of 360,000 active. AID 651654;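 active means mean lysis activity across replicates of at least 80%, whatever share of replicates individually reach that level; inactive means mean lysis activity below 80%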
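read-out = cell lysis signal | test system = log-phase Cryptococcus neoformans yeast cells | input = cells at 5 × 10^6 per mL | medium = fresh YPD growth medium | signal = luminescent adenylate kinase detection reagent | timing = 4 h at 37 °C static, read 1 h later | dosing = single dose | controls = Clomiphene as positive lysis control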
Large screens that a line does not name were inactive; ! = a repeat was not active; [ ] = dose if it differs, or a comment. This is a sample that favours compounds with a hit; in the whole collection about 1.2% have one here.

COc1cc(NC(C(=O)Nc2cccc(C(C)=O)c2)c2ccccc2)cc(OC)c1OC (stereo not drawn)	Glyco luc inh 27 (no result: miR122 inh, Yeast UUG start, C2C12 statin, Cneo AK release)
COc1cc(N)c(Br)cc1C(=O)O	none
Nc1cc2c(cc1Br)-c1c(C(=O)O)cccc1C2O (stereo not drawn)	Glyco luc inh 35 (no result: miR122 inh, Yeast UUG start, C2C12 statin, Cneo AK release)
CC(C)C#Cc1ccc2c(c1)O[C@H](CN(C)C(=O)Nc1ccccc1)[C@@H](C)CN([C@H](C)CO)S2(=O)=O	none (no result: Glyco luc inh)
Cc1ccc(-c2cc(-c3ccco3)c3c(N)c(C(=O)NN)oc3n2)cc1	none (no result: miR122 inh, Yeast UUG start, C2C12 statin, Cneo AK release)
NNC(=O)c1oc2nc(-c3cccs3)cc(-c3ccco3)c2c1N	Glyco luc inh 51
C[C@@H]1CN([C@H](C)CO)C(=O)Cc2cc(NC(=O)Cc3cn(C)c4ccccc34)ccc2O[C@H]1CN(C)Cc1ccc2c(c1)OCO2	C2C12 statin 79 (no result: Glyco luc inh)
CNC[C@H]1Oc2ccc(NC(=O)Cc3cn(C)c4ccccc34)cc2CC(=O)N([C@@H](C)CO)C[C@H]1C	Cneo AK release 83!
C[C@H](CO)N1C[C@H](C)[C@@H](CN(C)Cc2ccc(Cl)c(Cl)c2)Oc2ccc(NC(=O)Cc3cn(C)c4ccccc34)cc2CC1=O	C2C12 statin 127 (no result: Glyco luc inh)
CNC[C@@H]1Oc2ccc(NC(=O)Cc3cn(C)c4ccccc34)cc2CC(=O)N([C@H](C)CO)C[C@@H]1C	none (no result: Glyco luc inh)
Cc1noc(C)c1S(=O)(=O)Nc1ccc2c(c1)C(=O)N([C@@H](C)CO)C[C@@H](C)[C@H](CN(C)S(C)(=O)=O)O2	none (no result: Glyco luc inh, C2C12 statin)
C[C@@H]1CCCCO[C@@H](CN(C)C(=O)CCC(F)(F)F)[C@@H](C)CN([C@H](C)CO)C(=O)c2cc(NC(=O)NC3CCCCC3)ccc2O1	none (no result: Glyco luc inh, C2C12 statin)
Nc1ccc(Oc2ccc3nc(-c4ccccc4)c(-c4ccccc4)nc3c2)cc1	none
Nc1ccc2nc(-c3ccccc3)c(-c3ccccc3)nc2c1	Glyco luc inh 33
Cc1cccc(Nc2nc(N)nc(CN3CCN(c4ccccc4)CC3)n2)c1	none
Cc1cccc(Nc2nc(N)nc(CN3CCN(c4ccccc4F)CC3)n2)c1	C2C12 statin 81
CO[C@@H]1CN(C)C(=O)c2ccc(NC(=O)NC(C)C)cc2OC[C@@H](C)N(C(=O)CN(C)C)C[C@H]1C	none (no result: Glyco luc inh)
COCCNC(=O)C[C@H]1C=C[C@H](NS(=O)(=O)c2ccc(C)cc2)[C@@H](CO)O1	Cneo AK release 105 (no result: Glyco luc inh, miR122 inh)
COCCNC(=O)C[C@H]1C=C[C@@H](NS(=O)(=O)c2ccc(C)cc2)[C@H](CO)O1	Cneo AK release 93 (no result: Glyco luc inh, miR122 inh)
CO[C@@H]1CN(C)C(=O)c2cc(NC(=O)Nc3cccc(F)c3)ccc2OC[C@H](C)N(C(=O)C2CC2)C[C@H]1C	none (no result: Glyco luc inh, Yeast UUG start, Cneo AK release)
Cc1ccc(-c2ccc([C@H]3[C@H](CO)N4CCCCN(C(=O)c5ccc(F)cc5)C[C@@H]34)cc2)cc1	none (no result: Glyco luc inh)
COc1ccc(COc2ccc3c(C)cc(=O)oc3c2)cc1	none
COc1ccc2c(-c3cc4ccc(OCc5ccc(F)cc5)cc4oc3=O)cc(=O)oc2c1	Glyco luc inh 37 (no result: miR122 inh, Yeast UUG start, C2C12 statin, Cneo AK release)
O=C1CSC(=Nc2ccccc2)N1	C2C12 statin 95
O=C1CSC(=Nc2ccc(F)cc2)N1	none
CCCCn1nc2cc(C(=O)NCc3ccc(C(F)(F)F)cc3C(F)(F)F)ccc2c1OCC	C2C12 statin 83
CCCNC(=O)N1C[C@@H](O)COC[C@@H]2O[C@@H](CC(=O)N3CCN(C)CC3)CC[C@H]21	none (no result: Glyco luc inh, Yeast UUG start)
CCCNC(=O)N1C[C@H](O)COC[C@@H]2O[C@H](CC(=O)N3CCN(C)CC3)CC[C@H]21	none (no result: Glyco luc inh, Yeast UUG start)
CCCNC(=O)N1C[C@H](O)COC[C@H]2O[C@H](CC(=O)N3CCN(C)CC3)CC[C@@H]21	Cneo AK release 118 (no result: Glyco luc inh, Yeast UUG start)
CCCNC(=O)N1C[C@@H](O)COC[C@H]2O[C@H](CC(=O)N3CCN(C)CC3)CC[C@@H]21	Cneo AK release 105 (no result: Glyco luc inh, Yeast UUG start)
COc1ccc(CNC(=O)C[C@H]2C[C@H]3c4cc(NC(=O)CN(C)C)ccc4O[C@H]3[C@H](CO)O2)cc1	none (no result: Glyco luc inh)
COc1ccc(CN(Cc2cccn2C)C(=O)c2cc3cc(OC)ccc3[nH]2)cc1	C2C12 statin 124
COc1ccc(C#Cc2cnc3c(c2)C(=O)N([C@@H](C)CO)C[C@H](C)[C@@H](CN(C)C(=O)CC2CC2)O3)cc1	Cneo AK release 88 (no result: Glyco luc inh, Yeast UUG start)
COc1ccc(C#Cc2cnc3c(c2)C(=O)N([C@H](C)CO)C[C@H](C)[C@@H](CN(C)C(=O)Nc2cccc(OC)c2)O3)cc1	C2C12 statin 112!
COc1ccc(C#Cc2cnc3c(c2)C(=O)N([C@H](C)CO)C[C@@H](C)[C@@H](CN(C)C(=O)Nc2cccc(OC)c2)O3)cc1	none (no result: Glyco luc inh, Cneo AK release)
COCC#Cc1cnc2c(c1)C(=O)N([C@@H](C)CO)C[C@H](C)[C@H](CN(C)C(=O)Nc1ccc(OC)cc1)O2	Cneo AK release 109 (no result: Glyco luc inh)
C[C@@H]1CCCCO[C@@H](CN(C)Cc2ccc(C(F)(F)F)cc2)[C@H](C)CN([C@@H](C)CO)C(=O)c2cc(NC(=O)CCCN(C)C)ccc2O1	none (no result: Glyco luc inh, C2C12 statin)
Clc1ccc(CNc2ncnc3[nH]ncc23)c(Cl)c1	none (no result: Yeast UUG start, Cneo AK release)
CCCCOc1ccccc1C1CC(=O)NC2=C1C(=O)CCC2 (stereo not drawn)	miR122 inh 109 (no result: C2C12 statin)
CCCOc1ccccc1C1CC(=O)NC2=C1C(=O)CCC2 (stereo not drawn)	none
COCCNC(=O)C[C@H]1CC[C@H]2[C@@H](COc3ccc(NC(=O)c4ccno4)cc3C(=O)N2C)O1	none (no result: Glyco luc inh)
O=C(C1CCC1)N1CCCCN2[C@H](CO)[C@H](c3ccc(C#CC4CCCC4)cc3)[C@@H]2C1	none (no result: Glyco luc inh, C2C12 statin)
COCCCn1c(=O)/c(=C\c2ccccc2OC(F)F)s/c1=C(/C#N)C(N)=O	miR122 inh 167
C[C@@H]1CN([C@H](C)CO)S(=O)(=O)c2ccc(-c3ccc(F)cc3)cc2O[C@@H]1CN(C)C(=O)Nc1ccccc1F	none (no result: Glyco luc inh)
C[C@@H]1CN([C@H](C)CO)C(=O)c2cccc(NC(=O)C3CC3)c2O[C@H]1CN(C)Cc1ccc(C(F)(F)F)cc1	miR122 inh 106[16.7 µM] (no result: Glyco luc inh)
C[C@H](CO)N1C[C@H](C)[C@@H](CN(C)Cc2ccccc2)Oc2c(NC(=O)C3CC3)cccc2C1=O	miR122 inh 91!
C[C@H](CO)N1C[C@H](C)[C@@H](CN(C)Cc2ccc(C(F)(F)F)cc2)Oc2c(NC(=O)c3cnccn3)cccc2C1=O	miR122 inh 114[16.7 µM] (no result: Glyco luc inh)
C[C@@H]1CN([C@H](C)CO)C(=O)c2cccc(NC(=O)C3CC3)c2O[C@@H]1CN(C)Cc1ccccc1	none (no result: Glyco luc inh)
C[C@@H]1CN([C@H](C)CO)C(=O)c2cccc(NC(=O)Nc3ccc(F)cc3)c2O[C@H]1CN(C)Cc1ccc(C(F)(F)F)cc1	miR122 inh 165[16.7 µM] (no result: Glyco luc inh)
C[C@@H]1CN([C@@H](C)CO)C(=O)Cc2cc(NC(=O)CCC(F)(F)F)ccc2O[C@H]1CN(C)Cc1ccc(C(=O)Nc2ccccc2N)cc1	none (no result: Glyco luc inh)
COc1ccc(NC(=O)Nc2cccc3c2O[C@H](CN(C)C(=O)NC2CCCCC2)[C@H](C)CN([C@H](C)CO)C3=O)cc1	none (no result: Glyco luc inh)
